In paper PMC4225172:

Molecular target: recombinant biotinylated BoLA-6*01301 (HD6) MHC-I heavy chain (cattle (Holstein))
Test: radioligand binding

Substance: recombinant human β2m (from UniProt P61769 21-119) (natural protein)
- IC50: 2.5 nM
